# Laboratory results published in US6713266B1 (Isodiagnostika Inc., priority 1998, dated 2004).
# Columns and labels:
# [1] = tested on: Mouse polyclonal sera (AM9-9-DVS-KLH immunogen); assay: Antigen panel (direct) ELISA, mouse polyclonal sera; assay type: binding; settings: for Percent reactivity: OD to test antigen/ OD to AM19-9-DVS-HSA × 100; for OD: coated test antigen
# Experimental: (§1) 1. Use Falcon Pro-bind immunoplate.
# (§2) 2. Dilute coating antigen (Ag) to 1.0 μg/mL in carbonate-bicarbonate buffer. Use glass tubes.
# (§3) 3. Add 100 μL to each well of plate. Store overnight at 4° C.
# (§4) 4. Shake out wells and wash 3× with 200 μL PBS/0.05% TWEEN™ (polyoxyethylene-sorbitol) (v/v) per well.
# (§5) 5. Add blocking buffer, 200 μL per well (PBS/2% BSA (w/v)). Incubate for 60 min at 37° C.
# (§6) 7. Add 100 μL per well of test antibody appropriately diluted in PBS/0.1% Tween (v/v). Incubate 60 min at 37° C.
# (§7) 9. Dilute alkaline phosphatase conjugated anti-mouse IgG (Pierce cat #31322) in PBS/0.1% TWEEN™ (polyoxyethylene-sorbitol) (v/v) to 1:2000 concentration. Add 100 μL per well and incubate at 37° C. for 60 min.
# (§8) 10. Wash 3× as in step 4.
# (§9) 11. Prepare enzyme substrate using Sigma #104 alkaline phosphatase substrate tablets (1 mg/mL in 10% diethanolamine (v/v) substrate buffer). Add 100 μL per well and incubate in the dark at room temperature. Absorbance can be read at 405 nm at approximately 15-min intervals.
# Sera from mice immunized with the AM9-9-DVS immunogen which reacted strongly to the AM19-9-DVS hapten were further characterized by antigen panel ELISA (Table 13). Sera from these mice recognize epitopes on the AM19-9-DVS-HSA molecule. […] The reduction in antibody binding to panel antigens coupled through the amino acid #1 residue is presumed to be due to masking of the Ab epitope recognition site. As the AM9-9-DVS immunogens would present the amino acid #1 face of the molecule for immune recognition, blocking the amino acid #1 residue with the DVS linker arm would thereby block Ab/Ag interaction.
# [2] = tested on: Mouse polyclonal sera (AM19-1-DVS (2) - KLH immunogen); assay: Inhibition ELISA, AM19-1-DVS (2) HSA coated plate, mouse polyclonal sera; assay type: binding
# Experimental: (§10) Inhibition ELISA Protocol:
# (§11) 1. Use Falcon Pro-bind immunoplates.
# (§12) 2. Dilute coating antigen to 1 μg/mL in carbonate-bicarbonate buffer. Add 100 μL per well and incubate overnight at 4° C.
# (§13) 3. On the same day prepare inhibiting antigen tubes. Aliquot antibodies into glass test tubes. Prepare appropriate antigen concentration in ethanol and add to aliquoted antibody at 10 μL ethanol solution/250 μL antibody. Vortex tubes and incubate overnight at 4° C.
# as §4
# (§14) 5. Add 200 μL blocking buffer per well (PBS/2% BSA (w/v)). Incubate 60 min at room temperature.
# (§15) 7. Transfer contents of inhibition tubes to antigen-coated plate, 100 μL per well. Incubate 60 min at 37° C.
# (§16) 9. […] Add 100 μL per well and incubate at 37° C. for 60 min.
# (§17) 11. […] Add 100 μL per well and incubate in the dark at room temperature. Absorbance can be read at 405 nm at approximately 15-min intervals.
# MoAb AM19-1-7E12-2 = assay: Inhibition ELISA with AM19-1-DVS (1) coated ELISA plates, MoAb; assay type: binding, mouse; settings: AM19-1-7F12-2
# Experimental: as §10, §11, §12, §13, §4, §14, §15, §16, §17
# MoAb AM19-1-7E12-1 = assay: as above; assay type: binding, mouse; settings: AM19-1-7E12-1 TCS
# Experimental: as §10, §11, §12, §13, §4, §14, §15, §16, §17
# [3] = tested on: Mouse polyclonal sera (AM1-DVS-KLH immunogen); assay: Inhibition ELISA to the CSA-DVS-HSA conjugate, mouse polyclonal sera; assay type: binding
# Experimental: as §10, §11, §12, §13, §4, §14, §15, §16, §17
# [4] = tested on: Mouse polyclonal sera (AM19-9-DVS-KLH immunogen); assay: Inhibition ELISA, AM19-9-DVS-HSA coated plates, mouse polyclonal sera; assay type: binding
# Experimental: as §10, §11, §12, §13, §4, §14, §15, §16, §17
# [5] = tested on: Mouse polyclonal sera (AM9-9-DVS-KLH immunogen); assay: Inhibition ELISA, AM19-9-DVS-HSA coated plate, mouse polyclonal sera; assay type: binding
# Experimental: as §10, §11, §12, §13, §4, §14, §15, §16, §17
# [6] = tested on: Mouse polyclonal sera (CSA-DVS-KLH immunogen); assay: Inhibition ELISA, CSA-DVS-HSA coated plate, mouse polyclonal sera; assay type: binding; settings: Table 3, inhibition ELISA to the CSA-DVS-HSA conjugate
# Experimental: as §10, §11, §12, §13, §4, §14, §15, §16, §17
# [7] = tested on: Mouse polyclonal sera (CSA-DVS-KLH immunogen); assay: Antigen panel (direct) ELISA, mouse polyclonal sera; assay type: binding; settings: for Percent reactivity: OD to test antigen / OD to CSA-DVS-HSA × 100; for OD: coated test antigen
# Experimental: as §1, §2, §3, §4, §5, §6, §7, §8, §9
# These sera had low reactivity to the AM19-9-DVS-HSA conjugate.
# MoAb CSA-1H6 = assay: Inhibition ELISA to the CSA-DVS-HSA conjugate, MoAb; assay type: binding, mouse
# Experimental: as §10, §11, §12, §13, §4, §14, §15
# (§18) 9. Dilute alkaline phosphatase conjugated anti-mouse IgG (Pierce cat#31322) in PBS/0.1% TWEEN™ (polyoxyethylene-sorbitol) (v/v) to 1:5000 concentration. Add 100 μL per well and incubate at 37° C. for 60 min.
# as §17
# MoAb CSA-2G9 = assay: as above; assay type: binding, mouse
# Experimental: as §10, §11, §12, §13, §4, §14, §15, §18, §17
# [8] = tested on: Mouse polyclonal sera (AM19-1-DVS (1) - KLH immunogen); assay: Inhibition ELISA, AM19-1-DVS (1) HSA coated plate, mouse polyclonal sera; assay type: binding
# Experimental: as §10, §11, §12, §13, §4, §14, §15, §16, §17
# [9] = tested on: Mouse monoclonal antibody AM19-1-7E12-2; assay: Antigen panel (direct) ELISA, MoAb tissue culture supernatant; assay type: binding
# Experimental: as §1, §2, §3, §4, §5, §6, §7, §8, §9
# (§19) Spleen cells from mice immunized with the AM19-1-DVS (1) conjugate have been used to prepare MoAb secreting hybridoma cells. Anti-AM19-1-DVS (1) ELISA reactive IgM and IgG MoAb isotypes have been isolated. Table 19 illustrates the reactivity of TCS from two of these anti-AM19-1-DVS MoAbs (AM19-1-7E12-1 and AM19-1-7E12-2).
# [10] = tested on: Mouse monoclonal antibody AM19-1-7E12-1; assay: as above; assay type: binding
# Experimental: as §1, §2, §3, §4, §5, §6, §7, §8, §9, §19
substance,measurement,setting,value
"HSA: human serum albumin, protein carrier",Percent reactivity,[1]; Mouse 1,0%
same,OD,[1]; Mouse 1,0.001
same,Percent reactivity,[1]; Mouse 2,9.7%
same,OD,[1]; Mouse 2,0.060
same,Percent reactivity,[1]; Mouse 3,0%
same,OD,[1]; Mouse 3,0
same,Percent Inhibition,[2]; Mouse 3,0%
same,Percent Inhibition,[2]; Mouse 4,0%
same,Percent Inhibition of TCS,MoAb AM19-1-7E12-2,1.5%
same,Percent Inhibition of TCS,MoAb AM19-1-7E12-1,3.5%
same,Percent Inhibition,[3]; Mouse 1,1.8%
same,Percent Inhibition,[3]; Mouse 2,14.9%
same,Percent Inhibition,[4]; Mouse 5,0%
same,Percent Inhibition,[4]; Mouse 6,0%
same,Percent Inhibition,[5]; Mouse 1,24.6%
same,Percent Inhibition,[5]; Mouse 2,26.8%
same,Percent Inhibition,[6],24.9%
same,Percent reactivity,[7]; Mouse 1,0%
same,OD,[7]; Mouse 1,0
same,Percent reactivity,[7]; Mouse 2,0%
same,OD,[7]; Mouse 2,0
same,Percent Inhibition,"MoAb CSA-1H6; CSA-1H6, Table 24, CSA, CSG and CSA derivative inhibitors",6.0%
same,Percent Inhibition of TCS,"MoAb CSA-1H6; CSA-1H6 TCS, Table 16, CSA-DVS-HSA conjugate",0%
same,Percent Inhibition,"MoAb CSA-2G9; CSA-2G9, Table 24, CSA, CSG and CSA derivative inhibitors",9.4%
same,Percent Inhibition of TCS,"MoAb CSA-2G9; CSA-2G9 TCS, Table 16, CSA-DVS-HSA conjugate",1.5%
same,Percent Inhibition,[8]; Mouse 1,0%
same,Percent Inhibition,[8]; Mouse 2,0%
same,Percent reactivity,"[9]; AM19-1-7E12-2, OD to test antigen / OD to AM19-1-DVS (1)-HSA × 100",0%
same,OD,"[9]; AM19-1-7E12-2 TCS, coated test antigen",0
same,Percent reactivity,"[10]; AM19-1-7E12-1, OD to test antigen / OD to AM19-1-DVS (1)-HSA × 100",0%
same,OD,"[10]; AM19-1-7E12-1 TCS, coated test antigen",0.009
